# Measured affinities in a library of Ab-14 heavy chain variants

Target: peptide PDVDLGDISGINAS, taken from heptad repeat 2 (HR2) of SARS-CoV-2 spike.

Ab-14 is the parent antibody, in scFv form: VH, then a (GGGGS)3 linker, then VL. The light chain is unchanged in all variants.
VH: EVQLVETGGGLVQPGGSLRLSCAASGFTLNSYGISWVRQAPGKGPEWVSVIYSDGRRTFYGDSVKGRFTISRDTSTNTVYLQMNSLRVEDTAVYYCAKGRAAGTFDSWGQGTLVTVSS
VL: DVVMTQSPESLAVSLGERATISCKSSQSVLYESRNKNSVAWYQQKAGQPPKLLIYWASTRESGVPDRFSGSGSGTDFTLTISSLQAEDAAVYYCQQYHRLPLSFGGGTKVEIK

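The variants were designed computationally from a first round of random CDR variants and then made and measured. Several design methods are mixed in this list. The assay is AlphaSeq: two haploid yeast populations carry antibody and antigen on their surface. Binding brings cells together so that they mate, and sequencing counts the barcode pairs among the diploids. The ratio of observed to expected reads was calibrated, replicate by replicate, on BCL2-family standards whose Kd was known from biolayer interferometry. The assay was run in six technical replicates.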

The parent's heavy chain CDRs are GFTLNSYGIS, VIYSDGRRTFYGDSVK, GRAAGTFDS; each variant's own CDRs replace them letter for letter. Scale: log10 of Kd in nM, estimated from mating counts; low values are strong binders. A mean of the replicates is given; it leaves out those without a signal. "no signal" means that the variant was in the library but no mating with the target was seen in any replicate; the authors take this as a sign of poor binding, and no number exists. Nonspecific signal, from three strains lacking the peptide, appeared in 1% of pairings of all heavy chain designs, centred on 2.08 (5% of these signals below 0.84); values are not corrected for it. Of ten entries with the parent sequence, four were seen in most replicates (averages 0.34 to 2.37), three in one and three in none, so single entries are noisy. The authors averaged sequences with at least three values out of six and counted those with two or fewer as poor binders. A sequence that the file lists under several names has all its replicates pooled. The range of this assay differs from that of the first round, and the authors advise against merging the two.

mean, log10 nM	seen in	CDR-H1	CDR-H2	CDR-H3
no signal	0 of 6	GFALNEYGIS	VIYADGIRQVYANKVK	GNQTGTLLI
0.84	6 of 6	GFTLNEYGIS	VIYSDGRRTFYTDSVK	GRFAGTMDS
no signal	0 of 6	GFNLDEYGIS	VIYADGARTAYADKVK	GFNWWISVN
1.82	3 of 6	GFTLNSYGIS	VIYSDGERTFYQDSVK	GRAAGTFDD
no signal	0 of 6	GQSLNEYGIS	VIYADGHRKMYANDVK	GKQGAIFED
0.15	6 of 6	GFTLNDYGIS	VIYSDGRRTVYGDSVK	GRAAGTFDS
-0.39	6 of 6	GFDLNEYGIS	VIYADGRRTFYSDSVK	GQLAGTFDQ
no signal	0 of 6	GFHLNTYGIS	VIYSDGRRTFYIDSVK	GQAAGTFDS
1.32	5 of 6	GFTLNSYGIS	VIYSDGRRTFYGDNVK	GRIAGTFDS
1.26	4 of 6	GFNLNSYGIS	VIYSDGRRTFYGDQVK	GQAAGTFDS
0.87	5 of 6	GFHLNSYGIS	VIYSDGRRTFYGDSVK	GKQAGTFDS
no signal	0 of 6	GFQLDEYGIS	VIYADGNRTQYLENVK	GTNWGNVDL
no signal	0 of 6	GFDLNSYGIS	VIYSDGRRTFEGISVK	GRAAGWFNS
0.08	6 of 6	GFDLNEYGIS	VIYADGMRTAYSDSVK	GTNAGTFDV
-0.35	6 of 6	GFDLNEYGIS	VIYADGRRTFYVDSVK	GNNAGTFDV
0.36	6 of 6	GFSLNSYGIS	VIYSDGRRTFYKDSVK	GRTAGTFDS
0.47	6 of 6	GFSLNSYGIS	VIYSDGRRTFYADSVK	GMAAGTFDS
0.75	12 of 12	GFTLNSYGIS	VIYSDGERTFYHDSVK	GRAAGTFDS
no signal	0 of 6	GFSLDEMGIS	VIYADGSRMFYQDNVK	GNNSVTFNE
1.86	5 of 6	GFSLNSYGIS	VIYSDGERTFYCDSVK	GRAAGTFDS
-0.26	6 of 6	GFDLNEYGIS	VIYADGRRTFYADSVK	GTNGGTFDM
-0.14	6 of 6	GFDLDEYGIS	VIYADGVRTAYTDSVK	GNVAGTFDI
-1.02	6 of 6	GFDLNEYGIS	VIYADGRRTFYADSVK	GTEAGTFNM
-0.10	6 of 6	GFDLNEYGIS	VIYADGQRTAYADSVK	GDAAGTFDS
2.07	1 of 6	GDNINEYGIS	VIYADGLRKQYSENVK	GYNAGTLDE
no signal	0 of 6	GFDLGEYGIS	VIYADGQRKSYADAVK	GQSSVYMTA
-0.65	6 of 6	GFDLNEYGIS	VIYADGSRTAYANSVK	GEVAGTFDV
0.72	6 of 6	GFELNSYGIS	VIYSDGRRTFYTDSVK	GRMAGTFDS
1.06	3 of 6	GFTLNRYGIS	VIYSDGRRTFYCDSVK	GQLAGFFDS
0.93	6 of 6	GFSLNSYGIS	VIYSDGRRTFYADAVK	GRTAGTFDS
-1.10	6 of 6	GFDLNEYGIS	VIYADGLRTAYADSVK	GQVAGTFDV
2.18	5 of 6	GFNLNSYGIS	VIYADGRRTWYGDSVK	GRAAGTFKS
1.83	5 of 6	GETLNSYGIS	VIYSDGRRTAYGGSVK	GSAAGTFDS
0.26	6 of 6	GWDLEHYGIS	VIYADGKRSEYSDAVK	GQQAGTFNT
no signal	0 of 6	GFTLNSYGIS	VIYADGRRTAYGDSVK	GRAAGEFDS
no signal	0 of 6	GEDLNEYGIS	VIYADGQRTAYDESVK	GKFAGSFFH
2.03	6 of 6	GFTLNSYGIS	VIYSDGRRTFYIDSVK	GKAAGTFDT
0.09	5 of 6	GFTLNSYGIS	VIYSDGQRTFYSDSVK	GRVAGTFDS
-0.01	5 of 6	GFELDEYGIS	VIYADGRRTFYADSVK	GEVAGTFDV
no signal	0 of 6	GFTLNEYGIS	VIYSDGWRTFYGDSVK	GRAAVTFDQ
no signal	0 of 6	GFQINEYGIS	VIYADGLRAAYSQDVK	GQDTGNFVD
no signal	0 of 6	GFNLNEYGIS	VIYADGHRSAYVSNVK	GHLGGHFSM
0.65	6 of 6	GFDLNSYGIS	VIYSDGRRTFYHDSVK	GRQAGTFDS
-0.63	6 of 6	GFDLNEYGIS	VIYADGMRTAYIDSVK	GENAGTFDL
0.61	6 of 6	GFTLNQYGIS	VIYSDGWRTFYSDSVK	GRQAGTFDS
no signal	0 of 6	GFTLNLYGIS	VIYSDGRRTFYGDSVR	GRAKGTFDS
0.68	6 of 6	GFSLNDYGIS	VIYSDGRRTFYGDSVK	GRTAGTFDQ
0.04	6 of 6	GKDLQEYGIS	VIYADGARTAYSNSVK	GTQDGSLIV
-0.11	6 of 6	GFALNEYGIS	VIYSDGRRTFYGDSVK	GRTAGTFDT
no signal	0 of 6	GFTLNDYGIS	VIYSDGRRTFYADSVK	GRQAGTFIS
no signal	0 of 6	GFNLDEYGIS	VIYADGRRTGYRDKFK	GANNFSVMM
1.01	5 of 6	GFQLNSYGIS	VIYSDGRRTFYGDNVK	GKTAGTFDS
2.25	6 of 6	GFNLNSYGIS	VIYSDGRRSFYGDSVK	GRQAGTFDS
0.15	6 of 6	GFTLNSYGIS	VIYADGKRTFYGDSVK	GRAAGTFDS
0.95	6 of 6	GVNLNSYGIS	VIYSDGRRTFYGDSVK	GRAAGTFDS
0.04	6 of 6	GFDLNSYGIS	VIYSDGRRTFYSDSVK	GKQAGTFDS
no signal	0 of 6	GFTLNSYGGS	VIYSDGRRTFYGDSVK	GRTAGTFDS
-0.03	6 of 6	GFELNDYGIS	VIYSDGRRTAYIDSVK	GRAAGTFDS
-0.02	12 of 12	GFDLNEYGIS	VIYSDGRRTFYGDSVK	GRAAGTFDS
no signal	0 of 6	GNELSEYGIS	VIYADGIRTNYSQNVK	GTLAGTFTQ
-0.03	6 of 6	GFDLNEYGIS	VIYADGSRTAYADSVK	GETAGTFDL
0.55	6 of 6	GFDLNEYGIS	VIYADGMRTFYTDSVK	GEVAGTFDF
-1.81	6 of 6	GFSLNEYGIS	VIYSDGRRTFYGDSVK	GNAAGTFDQ
-0.24	6 of 6	GFELNSYGIS	VIYSDGRRTFYSDSVK	GKTAGTFDS
no signal	0 of 6	GFDLNSYGIS	VIYSDGRRTFYIDMVK	GQAAGTFDS
0.03	6 of 6	GFELNSYGIS	VIYSDGRRTAYGDSVK	GYAAGTFDT
-0.31	6 of 6	GFDLDEYGIS	VIYADGRRTAYSDSVK	GENAGTFDV
no signal	0 of 6	GNSLDEYGIS	VIYADGMRTAYTDDFK	GVVSNTLVD
1.39	5 of 6	GFTLNSYGIS	VIYSDGKRTFYGDSVK	GWVAGTFDT
-0.66	6 of 6	GFDLNEYGIS	VIYADGQRTFYADSVK	GETAGTFDV
1.75	6 of 6	GFDLDEYGIS	VIYADGRRTAYSGAFK	GNLQYGFMV
-0.54	6 of 6	GFDLNEYGIS	VIYADGMRTSYADSVK	GEVAGTFDT
no signal	0 of 6	GFCLNSYGIS	VIYSDGRRTHYGDSVK	GRAAGTKDS

Excerpt, the first 12 entries:

{"CDR-H1": "GFALNEYGIS", "CDR-H2": "VIYADGIRQVYANKVK", "CDR-H3": "GNQTGTLLI", "mean, log10 nM": "no signal", "seen in": "0 of 6"}
{"CDR-H1": "GFTLNEYGIS", "CDR-H2": "VIYSDGRRTFYTDSVK", "CDR-H3": "GRFAGTMDS", "mean, log10 nM": "0.84", "seen in": "6 of 6"}
{"CDR-H1": "GFNLDEYGIS", "CDR-H2": "VIYADGARTAYADKVK", "CDR-H3": "GFNWWISVN", "mean, log10 nM": "no signal", "seen in": "0 of 6"}
{"CDR-H1": "GFTLNSYGIS", "CDR-H2": "VIYSDGERTFYQDSVK", "CDR-H3": "GRAAGTFDD", "mean, log10 nM": "1.82", "seen in": "3 of 6"}
{"CDR-H1": "GQSLNEYGIS", "CDR-H2": "VIYADGHRKMYANDVK", "CDR-H3": "GKQGAIFED", "mean, log10 nM": "no signal", "seen in": "0 of 6"}
{"CDR-H1": "GFTLNDYGIS", "CDR-H2": "VIYSDGRRTVYGDSVK", "CDR-H3": "GRAAGTFDS", "mean, log10 nM": "0.15", "seen in": "6 of 6"}
{"CDR-H1": "GFDLNEYGIS", "CDR-H2": "VIYADGRRTFYSDSVK", "CDR-H3": "GQLAGTFDQ", "mean, log10 nM": "-0.39", "seen in": "6 of 6"}
{"CDR-H1": "GFHLNTYGIS", "CDR-H2": "VIYSDGRRTFYIDSVK", "CDR-H3": "GQAAGTFDS", "mean, log10 nM": "no signal", "seen in": "0 of 6"}
{"CDR-H1": "GFTLNSYGIS", "CDR-H2": "VIYSDGRRTFYGDNVK", "CDR-H3": "GRIAGTFDS", "mean, log10 nM": "1.32", "seen in": "5 of 6"}
{"CDR-H1": "GFNLNSYGIS", "CDR-H2": "VIYSDGRRTFYGDQVK", "CDR-H3": "GQAAGTFDS", "mean, log10 nM": "1.26", "seen in": "4 of 6"}
{"CDR-H1": "GFHLNSYGIS", "CDR-H2": "VIYSDGRRTFYGDSVK", "CDR-H3": "GKQAGTFDS", "mean, log10 nM": "0.87", "seen in": "5 of 6"}
{"CDR-H1": "GFQLDEYGIS", "CDR-H2": "VIYADGNRTQYLENVK", "CDR-H3": "GTNWGNVDL", "mean, log10 nM": "no signal", "seen in": "0 of 6"}

Values reported by Li et al. 2023, doi:10.1038/s41467-023-39022-2 (FLAb copy).